The results in this text go back to ChEMBL document CHEMBL4043202, “Synthesis, pH dependent, plasma and enzymatic stability of bergenin prodrugs for potential use against rheumatoid arthritis” (Bioorg Med Chem, 2017).

A short description of the data set: Stability in pH 7.4 PBS buffer assessed as compound remaining level at 120 mg/mL incubated for 24 hrs at 37 degC by HPLC method. The settings on record: pH 7.4, 24 h.

Take `COc1c(OC(=O)c2c([N+](=O)[O-])cc([N+](=O)[O-])cc2[N+](=O)[O-])cc2c(c1O)[C@@H]1O[C@H](COC(=O)c3c([N+](=O)[O-])cc([N+](=O)[O-])cc3[N+](=O)[O-])[C@@H](O)[C@H](O)[C@H]1OC2=O`: the Stability was 32.3%.
